For assay [1], the target named is T1, Ndc80p-6xHis/Nuf2p-EGFP subcomplex (budding yeast, UniProt P40460;P33895).
T1 sequence 1: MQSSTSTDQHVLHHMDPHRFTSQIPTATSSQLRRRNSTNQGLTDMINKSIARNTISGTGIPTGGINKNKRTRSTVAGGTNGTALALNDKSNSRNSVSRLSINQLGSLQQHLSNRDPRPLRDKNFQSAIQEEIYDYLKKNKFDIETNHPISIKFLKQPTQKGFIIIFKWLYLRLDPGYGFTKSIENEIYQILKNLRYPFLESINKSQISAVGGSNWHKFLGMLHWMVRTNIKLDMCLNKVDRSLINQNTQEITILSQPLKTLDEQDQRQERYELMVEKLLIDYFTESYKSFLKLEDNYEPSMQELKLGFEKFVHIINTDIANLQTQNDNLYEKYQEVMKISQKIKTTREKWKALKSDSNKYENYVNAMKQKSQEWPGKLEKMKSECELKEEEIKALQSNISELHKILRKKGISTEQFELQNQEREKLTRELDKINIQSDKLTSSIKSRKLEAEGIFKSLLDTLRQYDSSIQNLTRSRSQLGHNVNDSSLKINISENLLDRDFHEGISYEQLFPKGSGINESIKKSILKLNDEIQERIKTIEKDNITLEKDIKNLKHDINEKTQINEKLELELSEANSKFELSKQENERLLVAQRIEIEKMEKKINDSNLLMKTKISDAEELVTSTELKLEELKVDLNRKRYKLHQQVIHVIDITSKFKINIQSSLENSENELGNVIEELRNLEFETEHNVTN
T1 sequence 2: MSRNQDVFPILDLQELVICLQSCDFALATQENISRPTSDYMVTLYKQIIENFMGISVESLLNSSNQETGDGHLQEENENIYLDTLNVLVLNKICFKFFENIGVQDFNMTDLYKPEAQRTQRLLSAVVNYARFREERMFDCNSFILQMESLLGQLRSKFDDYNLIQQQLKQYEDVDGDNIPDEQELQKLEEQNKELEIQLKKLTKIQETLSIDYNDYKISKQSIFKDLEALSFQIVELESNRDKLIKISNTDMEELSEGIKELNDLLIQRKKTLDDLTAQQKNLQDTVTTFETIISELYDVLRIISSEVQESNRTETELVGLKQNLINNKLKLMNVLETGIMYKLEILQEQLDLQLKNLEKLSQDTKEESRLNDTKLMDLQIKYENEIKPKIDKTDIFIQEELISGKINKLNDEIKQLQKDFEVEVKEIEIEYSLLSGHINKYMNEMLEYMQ
Kind of assay: SEC. (In general: Size exclusion chromatography separates by hydrodynamic size, large species first.)

In assay [2] the target is T2, Ndc80p Δ256-273-6xHis/Nuf2p-EGFP subcomplex (budding yeast, UniProt P40460;P33895, Δ256-273).
T2 sequence 1: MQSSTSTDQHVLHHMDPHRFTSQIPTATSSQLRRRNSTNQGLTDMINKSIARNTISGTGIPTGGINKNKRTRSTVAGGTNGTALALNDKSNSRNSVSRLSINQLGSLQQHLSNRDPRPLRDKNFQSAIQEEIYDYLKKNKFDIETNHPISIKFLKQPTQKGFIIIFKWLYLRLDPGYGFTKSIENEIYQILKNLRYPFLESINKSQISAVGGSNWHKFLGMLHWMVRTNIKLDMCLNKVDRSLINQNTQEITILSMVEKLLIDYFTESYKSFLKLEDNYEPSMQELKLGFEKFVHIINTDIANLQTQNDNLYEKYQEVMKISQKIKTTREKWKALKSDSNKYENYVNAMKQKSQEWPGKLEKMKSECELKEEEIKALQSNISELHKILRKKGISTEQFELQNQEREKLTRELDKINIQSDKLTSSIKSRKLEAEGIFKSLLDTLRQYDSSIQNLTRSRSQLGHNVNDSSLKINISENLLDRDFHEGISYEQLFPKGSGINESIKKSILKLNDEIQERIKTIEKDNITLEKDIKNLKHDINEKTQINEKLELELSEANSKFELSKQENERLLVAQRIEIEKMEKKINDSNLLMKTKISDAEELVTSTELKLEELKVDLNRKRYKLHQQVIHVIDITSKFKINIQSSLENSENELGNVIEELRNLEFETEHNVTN
T2 sequence 2: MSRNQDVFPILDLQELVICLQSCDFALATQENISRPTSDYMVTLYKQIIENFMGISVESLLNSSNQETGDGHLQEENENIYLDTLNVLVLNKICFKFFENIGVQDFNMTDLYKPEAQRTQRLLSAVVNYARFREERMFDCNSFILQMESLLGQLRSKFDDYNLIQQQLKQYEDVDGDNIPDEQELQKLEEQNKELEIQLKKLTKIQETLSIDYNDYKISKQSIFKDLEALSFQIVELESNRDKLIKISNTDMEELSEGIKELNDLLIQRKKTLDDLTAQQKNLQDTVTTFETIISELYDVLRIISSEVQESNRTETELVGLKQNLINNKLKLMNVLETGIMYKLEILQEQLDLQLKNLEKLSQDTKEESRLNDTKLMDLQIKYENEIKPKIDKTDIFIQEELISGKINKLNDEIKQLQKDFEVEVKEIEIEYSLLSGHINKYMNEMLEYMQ
Description: SEC.

This is an account of results in paper PMC3542791 (The Journal of Cell Biology, 2013).

B1: Spc24p-6xHis/Spc25p subcomplex (complex)
chain 1: MSQKDNLLDNPVEFLKEVRESFDIQQDVDAMKRIRHDLDVIKEESEARISKEHSKVSESNKKLNAERINVAKLEGDLEYTNEESNEFGSKDELVKLLKDLDGLERNIVSLRSELDEKMKLYLKDSEIISTPNGSKIKAKVIEPELEEQSAVTPEANENILKLKLYRSLGVILDLENDQVLINRKNDGNIDILPLDNNLSDFYKTKYIWERLGK
chain 2: MASIDAFSDLERRMDGFQKDVAQVLARQQNHARQQLQQFQAEMRQLHNQHQHLIDELQRLATQRTALQQQIHAAQQATNTTREQWRSYHERESELSRRQSTLAAQSRELDSLLQQRGKECVQLRARWAAQSGNDAAEVALYERLLQLRVLPGASDVHDVRFVFGDDSRCWIEVAMHGDHVIGNSHPALDPKSRATLEHVLTVQGDLAAFLVVARDMLLASL
Take B1: the binding result in assay [1] and in assay [2] was “binds” in each case.
